{
  "sequences": {"note": "Chains of the proteins cited; added tags and fusions are not shown.", "UniProt Q9UM07, whole entry": "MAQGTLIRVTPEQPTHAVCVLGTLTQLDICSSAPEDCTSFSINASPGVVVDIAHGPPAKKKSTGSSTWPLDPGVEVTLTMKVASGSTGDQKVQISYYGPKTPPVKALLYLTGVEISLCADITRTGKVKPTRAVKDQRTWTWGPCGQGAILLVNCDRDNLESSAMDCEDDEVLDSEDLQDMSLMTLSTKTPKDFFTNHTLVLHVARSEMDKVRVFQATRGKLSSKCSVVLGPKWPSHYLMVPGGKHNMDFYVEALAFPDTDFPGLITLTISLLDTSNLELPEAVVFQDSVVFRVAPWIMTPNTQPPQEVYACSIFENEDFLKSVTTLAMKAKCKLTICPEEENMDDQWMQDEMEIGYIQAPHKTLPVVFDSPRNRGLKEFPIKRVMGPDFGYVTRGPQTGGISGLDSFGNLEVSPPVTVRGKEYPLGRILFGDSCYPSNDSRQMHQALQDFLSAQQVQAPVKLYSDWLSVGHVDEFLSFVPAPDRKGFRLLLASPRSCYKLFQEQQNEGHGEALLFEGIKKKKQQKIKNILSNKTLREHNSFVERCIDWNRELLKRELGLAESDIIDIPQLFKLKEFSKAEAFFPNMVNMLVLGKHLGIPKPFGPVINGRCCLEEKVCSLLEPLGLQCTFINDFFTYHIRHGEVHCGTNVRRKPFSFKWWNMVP"},
  "source": "paper PMC2943038",
  "about": "(Chemical communications (Cambridge, England), 2010)",
  "key": {"[1]": {"target": "PAD4 (Homo sapiens, UniProt Q9UM07)", "experiment": "PAD4 inhibition/inactivation, residual activity measured with BAEE", "format": "biochemical"}, "[2]": {"details": "use as a cancer therapy; cited from earlier work"}},
  "note": "“Also recorded” adds a separate entry of the source.",
  "data": [
    {"smiles": "COC1=C(N)C(=O)c2nc(-c3nc(C(=O)O)c(C)c(-c4ccc(OC)c(OC)c4O)c3N)ccc2C1=O", "note": "[NIH6, streptonigrin]", "values": [
      {"measurement": "selectivity for PADs 3 and 4 over PADs 1 and 2", "setting": "[1]; based on IC50 values", "result": "> 10", "unit": "fold"},
      {"measurement": "kinact/KI values for PADs 1, 2 and 3 fold lower than for PAD4", "setting": "[1]; based on kinact/KI", "result": "at least 35 fold"},
      {"measurement": "side effects / toxicity", "setting": "[2]", "result": "nausea, diarrhea, and hair loss; also recorded: bone marrow depression and high toxicity"}
    ]}
  ]
}
